Assay results as given in patent publication US7939541B2, “Intermediates and a process employing the intermediates for the preparation of (3-trifluoromethylsulfonyl)-N-[4-methyl-3-(4-pyridin-3yl-pyrimidin-2ylamino)-phenyl]-benzamide” (Natco Pharma Limited, priority 2004, dated 2011).

Tests used:
Type in all cases: in vivo
Details in all cases: 10 mg/kg orally or ip for 27 days from day 15, day 42
[1] = tested on: Baf3 murine leukemia cells T315I; test: Blast cell count in nude mice implanted with Baf3 T315I cells
[2] = tested on: Baf3 murine leukemia cells M351T; test: Blast cell count in nude mice implanted with Baf3 M351T cells
[3] = tested on: Baf3 murine leukemia cells Wt; test: Blast cell count in nude mice implanted with Baf3 Wt cells

Cc1nc(Nc2ncc(C(=O)Nc3c(C)cccc3Cl)s2)cc(N2CCN(CCO)CC2)n1 [reference compound]
blast cell count, response to treatment [1]: no significant decrease in blast cell count
blast cell count, response to treatment [2]: no significant decrease in blast cell count
blast cell count, response to treatment [3]: significant response
